Test results from patent US6069177A, “3-Hydroxy-propanamine derived neuronal reuptake inhibitors” (priority 1997, dated 2000).

Tested on: hSERT, hNET, and hDAT
Assay: Simultaneous binding to cloned human transporters hSERT, hNET and hDAT
Conditions: Table 4; each of the potency values greater than 7.0

SMILES | Simultaneous Transporter Binding Potency
COc1ccc(C(CN(C)C)C2(O)CCCCC2)cc1 (stereo not drawn) [Effexor ®, reference compound] | no
Fc1ccc([C@@H]2CCNC[C@H]2COc2ccc3c(c2)OCO3)cc1 [Paxil ®, reference compound] | no
CNCCC(Oc1ccc(C(F)(F)F)cc1)c1ccccc1 (stereo not drawn) [Prozac ®, reference compound] | no

Same assay, conditions: Table 5, comparison of rat and human data

SMILES | Simultaneous Transporter Binding Potency (Human)
COc1ccc(C(CN(C)C)C2(O)CCCCC2)cc1 (stereo not drawn) [Effexor ®, reference compound] | no
Fc1ccc([C@@H]2CCNC[C@H]2COc2ccc3c(c2)OCO3)cc1 [Paxil ®, reference compound] | no
CNCCC(Oc1ccc(C(F)(F)F)cc1)c1ccccc1 (stereo not drawn) [Prozac ®, reference compound] | no
